For ten compounds, IC50 results are on record in patent US6710048B2, “Pyrazine derivatives as modulators of tyrosine kinases” (Ortho-McNeil Pharmaceutical, Inc., priority 2000, dated 2004).

Sequences of proteins named here, by UniProt entry; tags and fusion partners are left off. Residues count along the entry.
UniProt O08775, 786-1343 limits assumed: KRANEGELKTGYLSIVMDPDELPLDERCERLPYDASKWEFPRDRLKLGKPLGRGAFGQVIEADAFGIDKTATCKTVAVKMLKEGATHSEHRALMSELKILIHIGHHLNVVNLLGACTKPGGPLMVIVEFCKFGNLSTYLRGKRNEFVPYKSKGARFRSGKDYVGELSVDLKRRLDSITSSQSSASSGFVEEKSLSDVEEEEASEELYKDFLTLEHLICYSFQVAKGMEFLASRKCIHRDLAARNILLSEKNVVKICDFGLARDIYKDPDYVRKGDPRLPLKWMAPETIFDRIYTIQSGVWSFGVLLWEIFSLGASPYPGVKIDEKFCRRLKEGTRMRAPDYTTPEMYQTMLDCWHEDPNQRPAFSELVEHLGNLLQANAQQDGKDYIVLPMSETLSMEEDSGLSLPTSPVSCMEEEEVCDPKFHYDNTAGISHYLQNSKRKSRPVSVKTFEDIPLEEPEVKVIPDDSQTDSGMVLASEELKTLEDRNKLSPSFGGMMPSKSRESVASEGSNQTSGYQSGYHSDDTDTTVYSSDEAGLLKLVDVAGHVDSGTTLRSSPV
UniProt P06493, whole entry: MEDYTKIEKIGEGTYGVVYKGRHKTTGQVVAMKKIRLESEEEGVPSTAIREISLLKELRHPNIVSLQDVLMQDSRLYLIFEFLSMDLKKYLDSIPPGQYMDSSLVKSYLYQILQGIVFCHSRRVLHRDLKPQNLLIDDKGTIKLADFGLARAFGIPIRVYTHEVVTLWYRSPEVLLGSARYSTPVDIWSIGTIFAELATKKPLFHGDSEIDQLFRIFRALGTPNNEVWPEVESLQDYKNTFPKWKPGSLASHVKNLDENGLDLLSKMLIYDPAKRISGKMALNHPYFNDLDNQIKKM
UniProt P14635, whole entry partner: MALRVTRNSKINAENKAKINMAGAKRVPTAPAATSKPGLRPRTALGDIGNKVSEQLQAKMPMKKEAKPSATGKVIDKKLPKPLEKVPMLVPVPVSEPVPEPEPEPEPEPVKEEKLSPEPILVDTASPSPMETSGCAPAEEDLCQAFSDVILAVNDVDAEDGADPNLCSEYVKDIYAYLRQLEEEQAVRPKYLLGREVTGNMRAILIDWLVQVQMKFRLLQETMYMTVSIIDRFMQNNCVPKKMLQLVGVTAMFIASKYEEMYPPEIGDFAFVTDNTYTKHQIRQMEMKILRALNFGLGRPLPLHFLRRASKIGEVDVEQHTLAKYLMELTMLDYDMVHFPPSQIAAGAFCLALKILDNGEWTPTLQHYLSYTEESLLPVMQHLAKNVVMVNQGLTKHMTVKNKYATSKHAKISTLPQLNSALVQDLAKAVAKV

Assay [1] deals with VEGF-R (vascular endothelial growth factor receptor-2) (Rattus norvegicus, UniProt O08775). The experiment in a line: VEGF-R screening assay (33P FlashPlate kinase assay). The conditions noted are these: read-out: VEGF-R IC50; Tables 1-3; >10 or >100 = no 50% inhibition at highest dose tested. The format is biochemical.
In assay [2] the target is CDK1 (cyclin dependent kinase 1) / cyclin B (Homo sapiens, UniProt P06493). Briefly: CDK1 kinase assay. The format is biochemical. The note with it: read-out: CDK IC50; Tables 1-3; >10 or >100 = no 50% inhibition at highest dose tested.

As to `OCCCNc1cncc(-c2ncncc2Nc2cccc(Cl)c2)c1`, the IC50 in assay [1] and in assay [2] was above 10 µM in each case.
As for `Cc1cc(-c2cncc(NCCCO)c2)nc(Nc2cccc(Cl)c2)n1`, the IC50 in assay [1] is 0.84 µM; in assay [2], above 10 µM.
Take `OCCCNc1ncc(-c2cncc(Nc3cccc(Cl)c3)n2)s1`: the 50% inhibitory concentration (IC50) worked out at 0.416 µM in assay [1] and 6.15 µM in assay [2].
`OCCCNc1cncc(-c2cncc(Nc3cccc(Cl)c3)n2)n1`: the IC50 in assay [1] was 0.372 µM; in assay [2], above 10 µM.
For the compound `Clc1cccc(Nc2cncc(-c3cncc(NCC4CCOCC4)c3)n2)c1`, the IC50 was 0.475 µM in assay [1] and above 10 µM in assay [2].
With `OCCCNc1cncc(-c2cc(Nc3cccc(Cl)c3)ncn2)c1`, the 50% inhibitory concentration (IC50) in assay [1] is above 10 µM.
Consider `CCN(CC)C(=O)Oc1cnccc1-c1cncc(Nc2cccc(Cl)c2)n1`, for which the IC50 in assay [2] was above 10 µM.
As for `OCCCNc1cc(-c2cncc(Nc3cccc(Cl)c3)n2)ccn1`, the IC50 in assay [1] and in assay [2] was 0.5 µM throughout.
Turning to `Oc1cnccc1-c1cncc(Nc2cccc(Cl)c2)n1`, the IC50 in assay [1] and in assay [2] was above 10 µM each time.
As to `OCCCNc1cncc(-c2ncc(Nc3cccc(Cl)c3)cn2)c1`, the IC50 in assay [1] and in assay [2] was above 10 µM throughout.
